# Data published in patent US20210221777A1, “NOVEL COMPOUNDS RELATED TO MY[…] METHODS OF TREATING CANCER” (priority 2020, published 2021).
# Tested on: pancreatic (PANC-1) tumor cell lines
# Test: Cytotoxicity vs. PANC-1 tumor cell line
# Conditions: PANC-1, relative to 1
substance,measurement,value
8-O-acetyl-mycothiazole [8-O-acetyl-mycothiazole (2)],fold less potent than 1 (cytotoxicity),ten fold less potent
